Experimental data reported in ChEMBL document CHEMBL4184302, “Virtual target screening reveals rosmarinic acid and salvianolic acid A inhibiting metallo- and serine-β-lactamases” (Bioorg Med Chem Lett, 2018).

Test: Inhibition of bacterial N-terminal His6-tagged VIM2 (27 to 266 residues) expressed in Escherichia coli BL21 DE3 pLysS cells using FC-5 as substrate in presence of 1000 uM zinc by fluorescence assay
Parameters: species or system Bacteria

## O=C(/C=C/c1ccc(O)c(O)c1)O[C@H](Cc1ccc(O)c(O)c1)C(=O)O [ROSMARINIC ACID]
  IC50: 45.9 µM
